Patent US20030134303A1, “Adenine nucleotide-binding protein-directed probes, and methods of their synthesis and use” (ActivX Biosciences, Inc,, priority 2001, published 2003)

Biological target: EGF receptor tyrosine kinase (Homo sapiens, UniProt P00533)
Experiment: Effect of inhibitors on EGF receptor tyrosine kinase labeling by ANBP (5) in A431 plasma membranes
Type: binding
Conditions: inhibitor 5 μM, 5 minutes pretreatment, then AX0231 20 μM for 60 minutes
Description: Plasma membranes containing the epidermal growth factor receptor (EGFR) were prepared from the A431 human epidermoid cancer cell line. Approximately 1×10^8 A431 cells were resuspended in 10 mls 20 mM HEPES, pH 7.5, 0.14M NaCl, 5 mM KCl, 0.1 mM EDTA, 0.1% glucose, and 0.035% sodium bicarbonate. The cells were lysed by Dounce homogenization, and the lysate was diluted into 80 mls of 20 mM sodium borate, pH 10.2, 0.1 mM EDTA. This mixture was placed on a rocker at 4° C. for 10 minutes, and the membranes from the mixture were isolated by centrifugation at 16,000 rpm for 30 minutes in a Beckman JA17 rotor. The plasma membranes were further purified by centrifugation over a 40%/30% sucrose cushion at 30000 rpm for 60 minutes in a Beckman MLS 50 swinging bucket rotor. The plasma membranes were collected at the aqueous—sucrose interface, and solubilized in buffer containing 20 mM HEPES, pH 7.5, 50 mM NaCl, 20 mM MgCl2, 0.05 mg/ml BSA, and 0.1% Triton-X-100.
Plasma membranes prepared as described above in Example 15 were treated with the ANBP (5), either alone (control), in the presence of an EGF receptor tyrosine kinase inhibitor (AG1478), or inhibitors that target other kinases (AG825 & AG 925), or ATP, and processed as described. […] The gel was then scanned on a FMBIO2 gel scanner, and the intensity of labeling of the EGFR was quantitated by ImageAnalysis.

SMILES: COc1cc2ncnc(Nc3cccc(Cl)c3)c2cc1OC [AG1478]
- reduction of probe labeling of EGFR: 90%
